Test results from patent publication US7029870B1 (priority 1997, dated 2006).

Chains of the proteins cited; added tags and fusions are not shown. Residues count along the entry.
UniProt P78334, 23-506 S102A: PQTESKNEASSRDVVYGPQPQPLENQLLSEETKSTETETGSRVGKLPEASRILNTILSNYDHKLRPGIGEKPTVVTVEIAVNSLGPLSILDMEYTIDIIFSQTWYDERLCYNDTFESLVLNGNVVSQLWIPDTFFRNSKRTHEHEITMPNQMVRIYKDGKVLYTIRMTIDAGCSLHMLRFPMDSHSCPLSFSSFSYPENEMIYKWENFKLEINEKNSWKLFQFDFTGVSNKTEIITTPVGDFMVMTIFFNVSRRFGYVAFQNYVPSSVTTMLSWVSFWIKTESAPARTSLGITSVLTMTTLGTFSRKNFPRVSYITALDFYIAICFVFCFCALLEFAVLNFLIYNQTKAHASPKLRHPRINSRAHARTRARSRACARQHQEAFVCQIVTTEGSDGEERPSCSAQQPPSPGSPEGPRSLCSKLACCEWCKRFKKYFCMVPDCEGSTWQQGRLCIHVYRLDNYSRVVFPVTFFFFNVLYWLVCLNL

Target: GABAA receptor ε-subunit (Homo sapiens, UniProt P78334, S102A)
Test: Radioligand binding to HEK-293 cells transfected with only the ε-subunit cDNA

For t-butyl bicyclophosphorothionate, the “Expression of radioligand binding sites” value was “did not express binding sites”.
